Binding of CDR-mutated scFvs to a peptide of the spike HR2 region

Binding partner: SARS-CoV-2 spike HR2 peptide, sequence PDVDLGDISGINAS.

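The starting antibody came from a phage panning campaign against this peptide. This is the validation round: designs drawn from the data on random variants, tested in the same kind of assay. Group labels follow the data file (Rand: our label for a block that the file lists under HC and that is probably the random mutants of the ten best first-round binders; En: ensemble of fine-tuned language models; HC: hill climbing; Gen: genetic algorithm; Gibbs: Gibbs sampling; a sequence that several methods proposed may carry one label only). In AlphaSeq, yeast of one mating type display the scFv and yeast of the other type display the target. The frequency of each diploid, read from paired DNA barcodes, reflects how well the two displayed proteins bind. A regression on co-assayed BCL2-family reference pairs converts the normalised counts of each replicate to an apparent Kd. The assay was run in six technical replicates.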

Each scFv is VH, the linker GGGGSGGGGSGGGGS, VL, as in the parent Ab-14, and differs from it in the CDRs of the heavy chain only.
VH: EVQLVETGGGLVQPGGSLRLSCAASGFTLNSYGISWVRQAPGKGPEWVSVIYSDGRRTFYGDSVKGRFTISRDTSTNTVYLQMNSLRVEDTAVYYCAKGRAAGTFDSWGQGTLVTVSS
VL: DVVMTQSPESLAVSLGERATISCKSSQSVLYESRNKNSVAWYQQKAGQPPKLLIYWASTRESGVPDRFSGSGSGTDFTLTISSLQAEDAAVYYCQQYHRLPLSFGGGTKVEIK

The parent's heavy chain CDRs are GFTLNSYGIS, VIYSDGRRTFYGDSVK, GRAAGTFDS; each variant's own CDRs replace them letter for letter. This list holds designs with more than six substitutions. Values are log10 of the apparent Kd in nM; lower means stronger binding. Averages over replicates are reported, and they cover detected replicates only. "ND" means that the variant was in the library but no mating with the target was seen in that replicate; the authors take this as a sign of poor binding, and no number exists. A sequence measured in both rounds can read differently, since the two assays cover different ranges. Nonspecific signal, from three strains lacking the peptide, appeared in 1% of pairings of all heavy chain designs, centred on 2.08 (5% of these signals below 0.84); values are not corrected for it. Of ten entries with the parent sequence, four were seen in most replicates (averages 0.34 to 2.37), three in one and three in none, so single entries are noisy. The authors averaged sequences with at least three values out of six and counted those with two or fewer as poor binders.

The variant GFDLNEYGIS, VIYADGRRTFYTDSVK, GQLAGTFDI [En_HC] showed -0.15, -0.75, -0.74, -0.79, -0.31, -0.68 (mean -0.57).
The variant GFDLKQYGIS, VIYADGRRTAYDNDVK, GQVAGIFLD [En_Gibbs] showed 1.51, 1.63, 0.72, 1.38, 1.47, ND (mean 1.34).
The variant GFDLNEYGIS, VIYADGMRTAYADDVK, GNQAGTFDV [En_Gen] showed -0.11, -0.50, -0.48, -0.32, -0.49, -0.23 (mean -0.36).
The variant GFDLNEYGIS, VIYADGVRTAYADSVK, GNIAGTFDI [En_Gen] showed -0.25, -0.36, -0.57, -0.61, -0.62, -0.38 (mean -0.47).
The variant GFDLNEYGIS, VIYADGKRTAYADNVK, GETAGTFDL [En_Gen] showed -0.09, -0.07, -0.38, -0.25, -0.35, -0.19 (mean -0.22).
The variant GFDIEEYGIS, VIYADGMRSSYSQSFK, GLQSGNISV [En_Gibbs] showed ND, ND, ND, ND, ND, ND.
The variant GFDLNEYGIS, VIYADGVRKAYADSVK, GENAGTFDI [En_Gen] showed -0.42, -0.71, -0.65, -0.67, -0.63, -0.42 (mean -0.58).
The variant GFSLDEYGIS, VIYADGLRTFYQDQVK, GQLAGSLYT [En_Gibbs] showed ND, ND, ND, ND, ND, ND.
The variant GQSLEEYGIS, VIYADGFRTQYKDSVK, GKNVFDIIV [En_Gibbs] showed ND, ND, ND, ND, ND, ND.
The variant GFDLNEYGIS, VIYADGSRTAYADNVK, GEVAGTFDI [En_Gen] showed 0.14, -0.06, 0.01, -0.10, 0.03, 0.24 (mean 0.04).
The variant GFDLNEYGIS, VIYADGRRTAYADKVK, GNNAGTFDV [En_Gen] showed 1.04, 0.26, 0.69, 0.02, ND, 0.13 (mean 0.43).
The variant GFDLDEYGIS, VIYADGMRTVYSDSVK, GENAGTFDV [En_Gen] showed -0.33, 0.08, -0.20, -0.78, -0.08, -0.34 (mean -0.27).
The variant GKDLDEYGIS, VIYADGRRTFALNTVK, GEIGGDLNM [En_Gibbs] showed ND, ND, ND, ND, ND, ND.
The variant GFDLNEYGIS, VIYADGMRSVYADSVK, GENAGTFDV [En_Gen] showed -0.35, -0.53, 0.62, -0.52, -0.12, -0.28 (mean -0.20).
The variant GFDLNEYGIS, VIYADGIRTAYTDSVK, GNVAGTFDV [En_Gen] showed 0.33, 0.71, 0.89, 0.39, 0.53, 1.11 (mean 0.66).
The variant GFDLNEYGIS, VIYADGKRTFYADSVK, GQTAGTFDS [En_HC] showed -0.61, -0.23, -0.57, -0.58, -0.74, -0.57 (mean -0.55).
The variant GFDLNEYGIS, VIYADGQRTFYADSVK, GKNAGTFDV [En_HC] showed 0.10, -0.22, -0.16, -0.55, -0.08, -0.23 (mean -0.19).
The variant GFNLDEYGIS, VIYADGRRTFYSDNVK, GEQAGTFDI [En_HC] showed 0.06, 0.04, 0.00, 0.23, 0.35, 0.47 (mean 0.19).
The variant GFDLDEYGIS, VIYADGKRTAYTDSVK, GETAGTFDV [En_Gen] showed -0.81, -1.06, -0.88, -1.12, -0.64, -0.71 (mean -0.87).
The variant GFDLNEYGIS, VIYADGKRTAYTDSVK, GHAAGTFDL [En_HC] showed 0.13, ND, -0.10, 0.03, -0.13, 0.45 (mean 0.08).
The variant GFDLDEYGIS, VIYADGSRTAYADSVK, GNVAGTFDM [En_Gen] showed -0.08, -0.47, 0.02, -0.16, -0.32, 0.19 (mean -0.14).
The variant GFDLKEYGIS, VIYADGSRTAYSKNFK, GEFDDMVLV [En_Gibbs] showed ND, ND, ND, ND, ND, ND.
The variant GFDLNEYGIS, VIYADGKRKFYADSVK, GENAGTFDV [En_HC] showed -0.59, -0.56, -0.74, -0.74, -0.79, -0.63 (mean -0.67).
The variant GFDLDEYGIS, VIYADGKRTAYADSVK, GETAGTFDT [En_Gen] showed 1.33, 0.94, 1.18, 0.58, 0.60, 1.38 (mean 1.00).
The variant GFDLNEYGIS, VIYADGRRTQYIDSVK, GEEAGTFDL [En_HC] showed -0.75, -0.13, ND, ND, 0.47, ND (mean -0.14).
The variant GFNLEEYGIS, VIYADGMRTKYSDNVK, GHIGNVRVV [En_Gibbs] showed ND, ND, ND, ND, ND, ND.
The variant GFNLEEYGIS, VIYADGMRSEYADNVK, GHKGNTFQD [En_Gibbs] showed ND, ND, ND, ND, ND, ND.
The variant GFDLNEYGIS, VIYADGMRTAYVDDVK, GNQAGTFDI [En_Gen] showed -0.27, -0.60, -0.34, -0.25, -0.58, 0.08 (mean -0.33).
The variant GFDLNEYGIS, VIYADGMRTFYTDSVK, GEFAGTFDA [En_HC] showed 0.23, 0.70, -0.13, -0.25, 0.26, 0.46 (mean 0.21).
The variant GFDINEYGIS, VIYADGQREYYAESVK, GFNQTINVV [En_Gibbs] showed ND, ND, ND, ND, ND, ND.
The variant GFDIEEYGIS, VIYADGLRTMVQNSVK, GELGQKFKV [En_Gibbs] showed ND, ND, ND, ND, ND, ND.
The variant GFDLNEYGIS, VIYADGMRTQYADSVK, GNTAGTFDV [En_Gen] showed -0.09, -0.45, -0.72, -0.23, -0.15, -0.48 (mean -0.35).
The variant GFDLTEYGIS, VIYADGRRQEYVDDVK, GQTAGHFLH [En_Gibbs] showed ND, 1.11, ND, ND, ND, ND.
The variant GNNLDEYGIS, VIYADGQRSAYAQSVK, GETGDNAMT [En_Gibbs] showed ND, 2.62, ND, ND, ND, ND.
The variant GFDIEEYGIS, VIYADGRRKAYADSVK, GIDVYGKTV [En_Gibbs] showed -0.08, -0.68, -0.31, -0.41, -0.60, -0.12 (mean -0.37).
The variant GFTLNDYGIS, VIYHDGGRTQPGDSVK, GRAALTFIS [Rand] showed ND, ND, ND, ND, ND, ND.
The variant GFDLNEYGIS, VIYADGSRTAYADDVK, GNNAGTFDI [En_Gen] showed 0.15, 0.19, -0.53, -0.20, -0.45, -0.49 (mean -0.22).
The variant GFDLDEYGIS, VIYADGRRTAYVDSVK, GENAGTFDV [En_Gen] showed -0.23, -0.45, -0.53, -0.09, -0.03, 0.04 (mean -0.22).
The variant GFNLNEYGIS, VIYADGMRTFYSDSVK, GETAGTFDN [En_HC] showed -0.79, -0.74, -0.98, -0.66, -1.06, -0.98 (mean -0.87).
The variant GQDLNEYGIS, VIYADGLRTAYTNNVK, GNQSDFDSG [En_Gibbs] showed ND, ND, ND, ND, ND, ND.
The variant GFDLNEYGIS, VIYADGQRTAYADSVK, GKVAGTFDA [En_HC] showed -0.24, -0.62, -0.36, -0.70, -0.44, -0.53 (mean -0.48).
The variant GFNLNEYGIS, VIYADGRRTFYADSVK, GNQAGTFDM [En_HC] showed -0.39, -0.57, -0.69, -0.41, -0.45, -0.50 (mean -0.50).
The variant GFDLDEYGIS, VIYADGVRTFYADSVK, GNNAGTFDV [En_Gen] showed 1.32, 0.55, 0.85, 0.54, 0.65, 0.77 (mean 0.78).
The variant GFDLNEYGIS, VIYADGSRTAYTDSVK, GNVAGTFDV [En_Gen] showed -0.14, -0.99, -0.09, 0.76, -0.67, -0.59 (mean -0.29).
The variant GFDLNEYGIS, VIYADGKRQAYADSVK, GEVAGTFDV [En_Gen] showed -0.56, -0.78, -0.86, -1.00, -0.92, -0.65 (mean -0.80).
The variant GFNLDEYGIS, VIYADGMRTFYIDKAK, GNAGIVFEM [En_Gibbs] showed ND, ND, ND, ND, ND, ND.

Top 3 of the variants detected in all replicates, tightest first:

CDR-H1,CDR-H2,CDR-H3,group,"replicates, log10 nM","log10 Kd (nM), mean"
GFDLDEYGIS,VIYADGKRTAYTDSVK,GETAGTFDV,En_Gen,"-0.81, -1.06, -0.88, -1.12, -0.64, -0.71",-0.87
GFNLNEYGIS,VIYADGMRTFYSDSVK,GETAGTFDN,En_HC,"-0.79, -0.74, -0.98, -0.66, -1.06, -0.98",-0.87
GFDLNEYGIS,VIYADGKRQAYADSVK,GEVAGTFDV,En_Gen,"-0.56, -0.78, -0.86, -1.00, -0.92, -0.65",-0.80

Data: MIT Lincoln Laboratory AlphaSeq set, Li et al. 2023, doi:10.1038/s41467-023-39022-2, as distributed in FLAb.